The record followed here is US20190062671A1, “PERFUME COMPOSITIONS” (Givaudan SA, priority 2016, published 2019).

Protein sequences, listed by entry. Tags and fused reporters are not part of them. Lines headed by an entry give the natural chain unless they say otherwise; changes in a name come on top.
UniProt Q9ULV4: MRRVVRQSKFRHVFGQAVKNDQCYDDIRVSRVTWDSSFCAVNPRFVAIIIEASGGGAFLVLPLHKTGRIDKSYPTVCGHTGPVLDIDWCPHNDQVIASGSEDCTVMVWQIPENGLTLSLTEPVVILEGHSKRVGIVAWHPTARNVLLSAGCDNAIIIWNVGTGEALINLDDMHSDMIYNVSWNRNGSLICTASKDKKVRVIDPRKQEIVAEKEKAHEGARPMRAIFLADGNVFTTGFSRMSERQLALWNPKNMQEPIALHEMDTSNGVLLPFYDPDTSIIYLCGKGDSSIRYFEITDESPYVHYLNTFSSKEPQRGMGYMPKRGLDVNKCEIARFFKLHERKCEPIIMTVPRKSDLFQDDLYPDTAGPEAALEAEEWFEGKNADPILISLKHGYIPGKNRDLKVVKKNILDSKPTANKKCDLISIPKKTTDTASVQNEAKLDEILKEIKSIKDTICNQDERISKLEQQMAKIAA

The test system of data set [1] is Nrf2-dependent luciferase (ARE-element of the gene AKR1C2) in KeratinoSens cell line. Nature of the data set: KeratinoSens assay, luciferase gene induction (OECD TG 442d). The settings on record: single chemicals, 48 h. The protocol: The level of skin sensitization can reliably and quantitatively be measured experimentally by the KeratinoSens® method, which measures the induction of Nrf2-dependent luciferase in a skin cell line.
Compounds were tested using the commercial KeratinoSens® assay for skin sensitization. The KeratinoSens® test compares the potential skin sensitization risk of chemicals. […] KeratinoSens® cells were grown for 24 h in 96-well plates. The medium was then replaced with medium containing the test chemical and the solvent dimethylsulfoxide (DMSO) at a final level of 1% (v/v). Each compound was tested at 12 binary dilutions in the range from 0.98 to 2000 μM. Cells were incubated for 48 h with the test agents, and then luciferase activity and cytotoxicity were determined. This full procedure was repeated three times for each chemical. For each chemical in each repetition and at each concentration, the gene induction compared to DMSO controls and the wells with statistically significant induction over the threshold of 1.5 (i.e. 50% enhanced gene activity) were determined. Furthermore, the maximal fold-induction (Imax) and the EC1.5 value (concentration in μM for induction above the threshold) were calculated.
All compositions were tested in the concentration range from 0.2-400 ppm (parts per million in weights per volume).

Data set [2] addresses test peptide Cor1C-420 (Ac-NKKCDLF) (Homo sapiens, UniProt Q9ULV4, I423F). The experiment in a line: Modified direct peptide reactivity assay with LC-MS detection of peptide adducts. The protocol:
Alternatively, the sensitization potential can be quantified by measuring the reactivity of test chemicals with peptides.
It is based on the fact that allergenic chemicals must react with a peptide/protein in order to be immunogenic.
The samples were incubated for 24 h at 37° C. and analysed by LC-MS analysis on a VELOS PRO Mass spectrometer (Thermo […], San Jose, Calif., U.S.A.) operated in the ESI(+) mode.
Mass spectra were recorded from 200-2000 amu. A ZORBAX Eclipse XDB-C18 column, 2.1 mm ID, 150 mm, 5-Micron (Agilent Technologies) was used. The mobile phase consisted of H2O (A) and methanol (B) each containing 0.1% formic acid (v/v). The solvent flow was 250 μl/min and the following gradient (ratio A:B) was used: 0 min, 95:5; 2 min, 40:60; 10 min, 2:98; 12 min, 2:98. The integration was performed with Xcalibur Quan Browser™.
In order to detect formation of modified peptides, the specific ion trace for a new adduct with the mass of the test chemical added to the test peptide is extracted, and the peak of the peptide-adduct is integrated. Peptide adduct formation is a particular sensitive endpoint to determine reactive, and thus allergenic nature of compounds.

Like-named read-outs stand apart in the source and are kept apart here.

Consider `CC(C)=CCCC(C)=CC=O` [Citral, 3,7-dimethyl-2,6-octadienal, reference compound], for which the “Imax (fold maximal gene induction)” value in data set [1] (0.98 to 2000 μM) is 22.3 fold. Besides, in data set [1] (n.i. = no induction above threshold of 1.5 (negative rating), listed as I), the “Concentration for 1.5-fold gene induction (EC 1.5 in μM)” value turned out to be 7.7 µM. Also, the “Peptide reactivity: adduct observation” value was “Direct Michael” in data set [2] and “does form a direct peptide adduct” in data set [2] (1 mM test chemical, 0.1 mM peptide, 24 h at 37° C.).
